Results: ChEMBL document CHEMBL1140340 (J Med Chem, 2005)

The chains behind the UniProt entries cited, without tags or fusion partners.
UniProt P23977, whole entry: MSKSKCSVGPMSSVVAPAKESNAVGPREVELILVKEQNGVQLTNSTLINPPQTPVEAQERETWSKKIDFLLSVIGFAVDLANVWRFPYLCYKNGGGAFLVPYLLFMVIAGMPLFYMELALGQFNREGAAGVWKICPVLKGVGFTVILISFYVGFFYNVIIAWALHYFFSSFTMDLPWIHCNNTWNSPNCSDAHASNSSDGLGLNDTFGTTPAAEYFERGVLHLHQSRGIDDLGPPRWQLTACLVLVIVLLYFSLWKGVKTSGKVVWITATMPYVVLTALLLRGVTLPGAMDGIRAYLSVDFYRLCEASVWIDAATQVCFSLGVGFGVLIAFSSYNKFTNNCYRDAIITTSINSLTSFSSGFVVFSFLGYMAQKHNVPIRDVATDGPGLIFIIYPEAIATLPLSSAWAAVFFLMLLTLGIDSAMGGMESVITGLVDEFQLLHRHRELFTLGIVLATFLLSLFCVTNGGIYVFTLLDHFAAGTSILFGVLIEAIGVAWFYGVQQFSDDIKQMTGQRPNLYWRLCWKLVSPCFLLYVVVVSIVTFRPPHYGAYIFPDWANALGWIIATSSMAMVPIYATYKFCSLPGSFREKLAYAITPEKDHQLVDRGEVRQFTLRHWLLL
UniProt P31652, whole entry, looked up: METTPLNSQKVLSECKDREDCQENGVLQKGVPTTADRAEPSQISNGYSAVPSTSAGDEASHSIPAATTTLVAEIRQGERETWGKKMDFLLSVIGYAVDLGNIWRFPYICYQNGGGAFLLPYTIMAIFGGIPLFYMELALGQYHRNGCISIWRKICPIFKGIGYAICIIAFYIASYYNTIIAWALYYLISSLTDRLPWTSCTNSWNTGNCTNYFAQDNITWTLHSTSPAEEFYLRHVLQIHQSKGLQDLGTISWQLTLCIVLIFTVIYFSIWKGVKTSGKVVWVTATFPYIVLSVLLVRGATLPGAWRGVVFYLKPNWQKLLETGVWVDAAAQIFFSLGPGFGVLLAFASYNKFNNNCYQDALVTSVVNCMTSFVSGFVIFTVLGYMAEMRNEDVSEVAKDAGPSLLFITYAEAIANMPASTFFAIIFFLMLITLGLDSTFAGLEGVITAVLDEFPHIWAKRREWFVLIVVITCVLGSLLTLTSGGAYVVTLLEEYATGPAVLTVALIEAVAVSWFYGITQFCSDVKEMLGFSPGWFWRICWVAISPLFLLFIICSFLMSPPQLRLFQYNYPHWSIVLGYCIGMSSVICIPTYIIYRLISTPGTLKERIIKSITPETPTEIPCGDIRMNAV

Columns and labels:
[1] = biological target: Sodium-dependent dopamine transporter (Rattus norvegicus, UniProt P23977); assay: Inhibition of [3H]WIN-35428 binding to rat brain dopamine transporter
[2] = biological target: Monoamine transporters; serotonin & dopamine (Rattus norvegicus) (UniProt P31652+P23977); assay: Ratio between Dopamine transporter and Serotonin transporter uptake; type: protein assay
[3] = biological target: Monoamine transporters; Norepininephrine & dopamine (Rattus norvegicus) (UniProt P23977+Q9WTR4); assay: Ratio between Dopamine transporter and Norepinephrine transporter uptake; type: protein assay
[4] = biological target: Monoamine transporters; Norepinephrine & serotonin (Rattus norvegicus) (UniProt P31652+Q9WTR4); assay: Ratio between Serotonin transporter and Norepinephrine transporter uptake; type: protein assay

Row | IC50 [1] | Ratio [2] | Ratio [3] | Ratio [4] | SMILES
1 | 1.86 µM | 0.63 | 91 | 140 | O[C@@H]1C[C@@H](C(c2ccccc2)c2ccccc2)OC[C@H]1NCc1ccccc1
2 | – | 0.046 | 0.37 | 8 | OC1CC(C(c2ccccc2)c2ccccc2)OCC1NCc1ccccc1 (single isomer, unassigned)
